Results taken from patent US8168650B2, “Therapeutic uses of bicyclic ligands of sigma 2 receptor” (priority 2006, dated 2012).
Counter-ions that a name gives are not always drawn. Like-named read-outs stand apart in the source and are kept apart here.

Amino acid sequences for entries named in this document (tags omitted).
UniProt Q5U3Y7, whole entry: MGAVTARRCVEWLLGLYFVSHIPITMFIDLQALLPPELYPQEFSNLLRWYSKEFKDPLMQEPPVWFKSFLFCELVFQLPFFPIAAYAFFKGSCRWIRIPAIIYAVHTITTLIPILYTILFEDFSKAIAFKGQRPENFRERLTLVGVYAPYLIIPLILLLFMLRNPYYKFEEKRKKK
UniProt Q60492, whole entry: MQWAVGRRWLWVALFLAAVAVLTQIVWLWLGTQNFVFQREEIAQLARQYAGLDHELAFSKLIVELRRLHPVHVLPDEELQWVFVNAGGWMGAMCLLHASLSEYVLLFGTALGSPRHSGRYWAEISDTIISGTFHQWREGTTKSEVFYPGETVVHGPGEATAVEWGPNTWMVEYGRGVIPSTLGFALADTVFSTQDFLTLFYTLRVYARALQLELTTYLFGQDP

Columns and labels:
EMT-6 cells = assay: Cytotoxicity assay (MTS) in EMT-6 cells; type: cell-based, mouse; details: EMT-6, MTS assay
σ2 receptor = σ2 receptor (Rattus norvegicus, UniProt Q5U3Y7); assay: σ2 receptor binding assay, [3H]DTG or [3H]RHM-1; details: for σ1/σ2 Ratio: Ki for σ1/Ki for σ2
σ1 receptor [1] = molecular target: T1, σ1 receptor (Cavia porcellus, UniProt Q60492)
σ1 receptor [2] = molecular target: T1, σ1 receptor; assay: σ1 receptor binding assay, [3H](+)-pentazocine; details: read-out: Ki for σ1; as listed in Table 2
[3] = read-out: EC50 (μM, 24 hours), 24 hours
[4] = read-out: EC50 (μM, 48 hours), 48 hours
[5] = read-out: Ki σ2, inhibiting binding of [3H]DTG or [3H]RHM-1 to rat liver homogenates, mean ± SEM

Row | SMILES | EC50 (EMT-6 cells; [3]) [µM] | EC50 (EMT-6 cells; [4]) [µM] | σ1/σ2 Ratio (σ2 receptor) | Ki (σ2 receptor; [5]) [µM] | Ki (σ1 receptor [1]) [µM] | Ki (σ1 receptor [2]) [µM] | Ki (σ2 receptor; read-out: Ki for σ2, as listed in Table 2) [µM]
1 | COc1ccc(C)cc1NC(=O)OC1CC2CCCC(C1)N2CCc1ccccc1 (stereo not drawn) | 51 | 31.5 | – | – | – | – | –
2 | COc1ccc(C)cc1NC(=O)O[C@H]1C[C@H]2CCC[C@@H](C1)N2CCCCCCNC(=O)CCCCCNC(=O)CCCC[C@@H]1SC[C@@H]2NC(=O)N[C@@H]21 | – | – | 7.67 | 1.35 | 10.4 | – | –
3 | COc1ccc(C)cc1NC(=O)O[C@H]1C[C@H]2CCC[C@@H](C1)N2CCCCCCCCCCNC(=O)CCCC[C@@H]1SC[C@@H]2NC(=O)N[C@@H]21 | – | – | 147 | 0.0697 | 10.2 | – | –
4 | COc1ccc(C)cc1NC(=O)O[C@H]1C[C@H]2CCC[C@@H](C1)N2CCCCCCCCCCNC(=O)CCCCCNC(=O)CCCC[C@@H]1SC[C@@H]2NC(=O)N[C@@H]21 | – | – | 5.21 | 0.733 | 3.82 | – | –
5 | COc1ccc(C)cc1NC(=O)OC1CC2CCCC(C1)N2CCCCN (stereo not drawn) [Compound 1a, N-(9-(4-Aminobutyl)-9-azabicyclo[3.3.1]nonan-3α-yl)-N-(2-methoxy-5-methyl-phenyl)carbamate hydrochloride] | 30 | 18.5 | – | – | – | 6.29 | 0.0283
